Results as given in publication PMC9444296 (Investigative Radiology, 2022).

The chains behind the UniProt entries cited, without tags or fusion partners.
UniProt P05177, whole entry: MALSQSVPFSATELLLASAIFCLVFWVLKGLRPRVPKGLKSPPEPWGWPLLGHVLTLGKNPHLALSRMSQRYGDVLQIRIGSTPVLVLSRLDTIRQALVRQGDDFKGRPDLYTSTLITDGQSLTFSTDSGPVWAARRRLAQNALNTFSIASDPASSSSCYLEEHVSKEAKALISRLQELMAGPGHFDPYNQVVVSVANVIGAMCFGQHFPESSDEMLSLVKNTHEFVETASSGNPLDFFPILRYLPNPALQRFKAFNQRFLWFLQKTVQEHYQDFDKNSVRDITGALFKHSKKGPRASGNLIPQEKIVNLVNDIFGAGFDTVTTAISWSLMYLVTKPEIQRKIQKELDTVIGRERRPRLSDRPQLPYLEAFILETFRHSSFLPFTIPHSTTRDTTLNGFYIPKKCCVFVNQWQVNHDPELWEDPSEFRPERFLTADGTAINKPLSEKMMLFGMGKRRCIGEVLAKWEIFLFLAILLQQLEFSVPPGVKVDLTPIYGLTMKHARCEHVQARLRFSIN

Molecular target: CYP1A2 (Homo sapiens, UniProt P05177)
Details: CYP1A2, positive control selective inhibitor, human liver microsomes

## O=c1cc(-c2ccccc2)oc2c1ccc1ccccc12 [α-naphthoflavone, reference compound]
  enzyme activity decreased by: 74.8%
